# Values quoted from earlier work, collected in patent US20170115265A1, “Use of Visibly Detectable Compounds as Performance Reference Compounds in Passive Sampling Devices” (Geosyntec Consultants, Inc., priority 2015, published 2017).
# Details: drugs, reported by Scheytt et al. 2005; cited from earlier work
smiles,measurement,value
NC(=O)N1c2ccccc2C=Cc2ccccc21 [Carbamazepine],Log KOW value,1.51
